From patent US10028961B2, “Therapeutically active compounds and their methods of use” (AGIOS PHARMACEUTICALS, INC., priority 2013, dated 2018)

Sequences of proteins named here, by UniProt entry; tags and fusion partners are left off.
UniProt O75874, whole entry R132C: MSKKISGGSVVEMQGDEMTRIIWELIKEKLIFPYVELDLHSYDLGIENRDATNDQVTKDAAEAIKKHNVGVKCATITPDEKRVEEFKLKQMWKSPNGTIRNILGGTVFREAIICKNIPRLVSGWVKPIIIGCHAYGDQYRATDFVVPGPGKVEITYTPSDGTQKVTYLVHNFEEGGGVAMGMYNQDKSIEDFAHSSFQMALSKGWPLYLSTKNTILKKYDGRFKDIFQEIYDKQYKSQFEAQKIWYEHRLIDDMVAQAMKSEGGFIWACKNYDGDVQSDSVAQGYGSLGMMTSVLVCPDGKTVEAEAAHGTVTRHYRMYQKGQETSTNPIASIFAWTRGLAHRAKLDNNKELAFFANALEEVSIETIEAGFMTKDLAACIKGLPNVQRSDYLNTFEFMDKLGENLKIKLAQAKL
UniProt O75874, whole entry R132H: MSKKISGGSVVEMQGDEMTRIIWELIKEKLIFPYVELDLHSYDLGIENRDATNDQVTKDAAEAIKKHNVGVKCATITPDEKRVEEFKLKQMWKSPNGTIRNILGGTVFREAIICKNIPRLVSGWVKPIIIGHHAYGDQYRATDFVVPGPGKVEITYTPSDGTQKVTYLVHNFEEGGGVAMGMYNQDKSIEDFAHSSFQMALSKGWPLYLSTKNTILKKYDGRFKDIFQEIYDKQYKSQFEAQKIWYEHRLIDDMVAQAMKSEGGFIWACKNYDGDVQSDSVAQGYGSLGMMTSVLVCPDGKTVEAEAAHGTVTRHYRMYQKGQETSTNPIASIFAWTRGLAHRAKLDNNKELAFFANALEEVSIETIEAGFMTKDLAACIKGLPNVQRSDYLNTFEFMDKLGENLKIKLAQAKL
UniProt O75874, whole entry, stated change not applied: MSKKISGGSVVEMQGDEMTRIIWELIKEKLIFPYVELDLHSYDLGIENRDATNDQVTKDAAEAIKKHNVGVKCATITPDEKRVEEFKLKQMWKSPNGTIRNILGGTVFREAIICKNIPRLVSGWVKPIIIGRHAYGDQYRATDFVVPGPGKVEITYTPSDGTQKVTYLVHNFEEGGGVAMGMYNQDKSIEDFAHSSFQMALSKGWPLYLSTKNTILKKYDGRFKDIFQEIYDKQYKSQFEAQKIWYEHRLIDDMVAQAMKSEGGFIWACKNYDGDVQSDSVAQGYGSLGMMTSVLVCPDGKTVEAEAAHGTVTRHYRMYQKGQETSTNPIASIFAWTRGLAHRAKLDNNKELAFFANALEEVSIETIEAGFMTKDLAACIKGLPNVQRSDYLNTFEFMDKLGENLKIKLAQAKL

Tests used:
Assay type in all cases: biochemical
[1] = molecular target: IDH1-R132C homodimer enzyme (Homo sapiens (Human), UniProt O75874, R132C); assay: In vitro assay IDH1-R132C homodimer, NADPH depletion assay with NADPH/NADP preincubation; conditions: 5 uM NADPH and 28.75 uM NADP, read-out: IDH R132C NADPH/NADP IC50
Protocol: (§1) The following describes the experimental procedures that can be used to obtain data on columns 3 and 5 of Table 5.
(§2) A test compound is prepared as 10 mM stock in DMSO and diluted to 50× final concentration in DMSO, for a 50 μl reaction mixture. IDH enzyme activity converting alpha-ketoglutarate to 2-hydroxyglutaric acid is measured using a NADPH depletion assay. In the assay the remaining cofactor is measured at the end of the reaction with the addition of a catalytic excess of diaphorase and resazurin, to generate a fluorescent signal in proportion to the amount of NADPH remaining. […] The reaction is started with the addition of 10 μl of Substrate Mix ([…], 5 mM alpha-ketoglutarate, in Assay Buffer) and the mixture is incubated for 60 minutes at room temperature.
The concentration of alpha-ketoglutarate in the Substrate Buffer is 1 mM.

[2] = molecular target: IDH1-R132H homodimer enzyme (Homo sapiens (Human), UniProt O75874, R132H); assay: In vitro assay IDH1-R132H homodimer, NADPH depletion assay with NADPH/NADP preincubation; conditions: 5 μM NADPH and 37.5 μM NADP
Protocol: as §1, §2

[3] = molecular target: IDH1-R132 homodimer enzyme (R132H) (Homo sapiens (Human), UniProt O75874, R132H); assay: In vitro assay IDH1-R132H homodimer, NADPH depletion assay
Protocol: (§3) The following describes the experimental procedures that can be used to obtain data on columns 3 and 6 of Table 4.
as §2, with “90” for “60”

IDH1 R132C = IDH1 R132C (Homo sapiens (Human), UniProt O75874, R132C); assay: In vitro assay IDH1 R132C homodimer, NADPH depletion assay
Protocol: as §3
as §2, with “90” for “60”
The concentration of NADPH and alpha-ketoglutarate in the Substrate Buffer is 20 μM and 1 mM, respectively.

[4] = molecular target: IDH1 wt/IDH1 R132H heterodimer (Homo sapiens (Human), UniProt O75874, R132H); assay: In vitro assay for IDH1m R132H inhibitors, IDH1 wt/IDH1 R132H heterodimer, NADPH depletion (diaphorase/resazurin); conditions: NADPH/NADP, not saturated
Protocol: The following describes the experimental procedures that can be used to obtain data on columns 2 and 4 of Table 4 and column 2 of Table 5.
In the primary reaction, the reduction of α-KG acid to 2-HG is accompanied by a concomitant oxidation of NADPH to NADP. The amount of NADPH remaining at the end of the reaction time is measured in a secondary diaphorase/resazurin reaction in which the NADPH is consumed in a 1:1 molar ratio with the conversion of resazurin to the highly fluorescent resorufin.
The mixture of compound, enzyme, and cofactor is pre-incubated at room temperature for 1 hr prior to the addition of alpha-ketoglutarate. To perform the secondary reaction, 10 uL of 1× buffer containing 36 μg/ml diaphorase and […] resazurin is added to the primary reaction and incubated for a further 5 minutes at 25° C. […] Compounds or compound dilutions are prepared in 100% DMSO concentration and diluted 1:50 into the final reaction. […] IC50s are determined.
IDH1 or IDH2 wildtype (wt) and mutant heterodimers are expressed and purified by methods known in the art. […] Co-expression of IDH1wt-his and IDH1R132C-flag is carried out in sf9 insect cells. Cells (25 g) are resuspended in 250 ml of 50 mM Tirs, 500 mM NaCl, pH7.4, at 4° C. with stirring. […]

## C[C@@H](Nc1cc(N[C@H](C)C2CC2)nc(-c2cccc(C(F)(F)F)n2)n1)C1CC1 [Compound 414]
[1]
  IC50: 0.1 to 1 µM
[2]
  IC50: 0.05 to 0.1 µM
[3]
  IC50: 0.1 to 1 µM
IDH1 R132C
  IC50: 0.1 to 1 µM

## C[C@H](Nc1cc(N[C@H](C)C2CC2)nc(-c2cccc(C(F)(F)F)n2)n1)C1CC1 [Compound 415]
[3]
  IC50: 0.1 to 1 µM
IDH1 R132C
  IC50: 0.1 to 1 µM

## C[C@H](Nc1cc(N[C@@H](C)C2CC2)nc(-c2cccc(C(F)(F)F)n2)n1)C1CC1 [Compound 416]
[4]
  IC50: < 0.05 µM
[3]
  IC50: 0.1 to 1 µM

## CC(Nc1cc(NC(C)C2CC2)nc(-c2cccc(C(F)(F)F)n2)n1)C1CC1 (stereo not drawn) [Compound 420]
[3]
  IC50: 0.1 to 1 µM
